Assays:
Assay in all cases: Ki determination for immobilized VI16742: two consecutive incubations, control beads, ligand concentration and incubation time controls (Tables 7, 8)
Assay type in all cases: binding
[1] = biological target: cellular target proteins in HeLa cell lysate (Homo sapiens, UniProt P19784); conditions: Ki (VI16742), CK2a2 (CSNK2A2) IPI00020602
Text: (§1) In an alternative implementation of the chemical proteomic approach according to the invention, the broadly-selective pyrido[2,3-d]pyrimidine-based kinase inhibitor VI16742 has been used for affinity capture (FIG. 10a). […] As shown by gene ontology analysis, the corresponding molecular functions were highly over-represented in proteins specifically retained by the inhibitor resin (FIG. 10b).
(§2) Cysteine carbamidomethylation was set as a fixed modification and N-acetyl protein and oxidized methionine were allowed as variable modifications. Spectra that were determined to result from heavy labeled peptides in the pre-search detection of SILAC partners by MaxQuant were searched with the fixed modifications Lys^4, Lys^8, Arg^6 and Arg^10, whereas MS/MS spectra for which no SILAC state could be assigned before database searching were searched with Lys^4, Lys^8, Arg^6 and Arg^10 as variable modifications. The mass tolerance was set to 5 ppm for monoisotopic precursor ions and to 0.5 Da for MS/MS peaks. The minimum peptide length was set to 6 amino acids and up to three missed cleavages and three isotopically labeled amino acids were permitted per peptide. The accepted false discovery rate (FDR) was 1% for the proteins and peptides. The cut-off for the posterior error probability (PEP) of peptides was set to 10%. Peptide PEPs were determined by generating Mascot score and peptide-length-dependent histograms for both the forward and the reverse hits and then deriving the probability of a false identification for a given top-scoring peptide using Bayes' theorem. The PEPs of peptides belonging to the same proteins were then multiplied. Each peptide sequence was considered only once with the lowest PEP determined in case of multiple sequencing of the same isotopic pattern or of peptide species with different SILAC, charge or modification states. Proteins were then sorted according to their products of their peptide PEPs and included until a FDR of 1% was reached according to the fraction of reverse proteins contained in the protein list. In addition to the FDR threshold applied for protein identification, proteins were only included when they were identified with at least two peptides (of which one was required to be unique for the protein) and quantified if at least on quantifiable SILAC pair was associated with them. Outliers were not removed as protein ratios were calculated as the median instead of the average of all peptide ratios. For peptides shared among different identified proteins, SILAC ratios were only considered for the ratio of the protein identified with the highest number of unique peptides. Protein ratios for the different in vitro association experiments were corrected for the initial SILAC pooling ratio, which was determined from the median of protein ratios in pooled SILAC-encoded cell extracts.

Amino acid sequences for entries named in this document (tags omitted). A change or cut given only in a name is not applied to a line headed by its entry.
UniProt P19784, whole entry: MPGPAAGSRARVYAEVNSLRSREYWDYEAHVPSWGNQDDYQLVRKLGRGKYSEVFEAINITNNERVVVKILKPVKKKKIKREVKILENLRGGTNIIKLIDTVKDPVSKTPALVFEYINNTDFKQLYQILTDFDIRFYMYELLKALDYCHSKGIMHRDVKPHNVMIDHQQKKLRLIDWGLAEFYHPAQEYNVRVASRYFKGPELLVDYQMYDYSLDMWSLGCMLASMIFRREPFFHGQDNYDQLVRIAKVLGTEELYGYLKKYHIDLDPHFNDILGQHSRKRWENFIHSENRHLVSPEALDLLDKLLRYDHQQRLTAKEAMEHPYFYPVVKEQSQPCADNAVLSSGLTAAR
UniProt Q13557, whole entry: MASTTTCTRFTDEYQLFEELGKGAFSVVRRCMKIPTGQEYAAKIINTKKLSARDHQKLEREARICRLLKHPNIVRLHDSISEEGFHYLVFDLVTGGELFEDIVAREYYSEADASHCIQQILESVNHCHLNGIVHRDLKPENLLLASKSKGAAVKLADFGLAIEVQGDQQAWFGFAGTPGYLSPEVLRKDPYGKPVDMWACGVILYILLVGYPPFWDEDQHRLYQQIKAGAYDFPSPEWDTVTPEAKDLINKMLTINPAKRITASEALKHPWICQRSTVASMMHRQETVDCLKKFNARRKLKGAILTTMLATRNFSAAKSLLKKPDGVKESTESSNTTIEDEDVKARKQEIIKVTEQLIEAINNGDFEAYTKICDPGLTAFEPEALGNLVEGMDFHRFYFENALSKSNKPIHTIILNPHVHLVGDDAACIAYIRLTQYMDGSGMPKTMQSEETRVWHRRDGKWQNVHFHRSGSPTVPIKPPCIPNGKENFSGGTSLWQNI
UniProt P35790, whole entry: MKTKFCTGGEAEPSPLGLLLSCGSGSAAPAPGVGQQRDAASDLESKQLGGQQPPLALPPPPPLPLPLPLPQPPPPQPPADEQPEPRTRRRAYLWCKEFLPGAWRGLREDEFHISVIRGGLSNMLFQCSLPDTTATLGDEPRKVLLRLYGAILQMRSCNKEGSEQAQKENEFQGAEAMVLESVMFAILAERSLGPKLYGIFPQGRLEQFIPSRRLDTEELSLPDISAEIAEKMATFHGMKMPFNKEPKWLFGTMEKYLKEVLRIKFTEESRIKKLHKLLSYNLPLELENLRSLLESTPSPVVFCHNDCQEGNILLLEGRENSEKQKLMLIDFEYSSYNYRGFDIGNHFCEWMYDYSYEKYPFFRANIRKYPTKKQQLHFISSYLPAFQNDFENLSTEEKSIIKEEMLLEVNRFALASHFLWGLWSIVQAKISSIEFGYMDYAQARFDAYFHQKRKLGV
UniProt O60307: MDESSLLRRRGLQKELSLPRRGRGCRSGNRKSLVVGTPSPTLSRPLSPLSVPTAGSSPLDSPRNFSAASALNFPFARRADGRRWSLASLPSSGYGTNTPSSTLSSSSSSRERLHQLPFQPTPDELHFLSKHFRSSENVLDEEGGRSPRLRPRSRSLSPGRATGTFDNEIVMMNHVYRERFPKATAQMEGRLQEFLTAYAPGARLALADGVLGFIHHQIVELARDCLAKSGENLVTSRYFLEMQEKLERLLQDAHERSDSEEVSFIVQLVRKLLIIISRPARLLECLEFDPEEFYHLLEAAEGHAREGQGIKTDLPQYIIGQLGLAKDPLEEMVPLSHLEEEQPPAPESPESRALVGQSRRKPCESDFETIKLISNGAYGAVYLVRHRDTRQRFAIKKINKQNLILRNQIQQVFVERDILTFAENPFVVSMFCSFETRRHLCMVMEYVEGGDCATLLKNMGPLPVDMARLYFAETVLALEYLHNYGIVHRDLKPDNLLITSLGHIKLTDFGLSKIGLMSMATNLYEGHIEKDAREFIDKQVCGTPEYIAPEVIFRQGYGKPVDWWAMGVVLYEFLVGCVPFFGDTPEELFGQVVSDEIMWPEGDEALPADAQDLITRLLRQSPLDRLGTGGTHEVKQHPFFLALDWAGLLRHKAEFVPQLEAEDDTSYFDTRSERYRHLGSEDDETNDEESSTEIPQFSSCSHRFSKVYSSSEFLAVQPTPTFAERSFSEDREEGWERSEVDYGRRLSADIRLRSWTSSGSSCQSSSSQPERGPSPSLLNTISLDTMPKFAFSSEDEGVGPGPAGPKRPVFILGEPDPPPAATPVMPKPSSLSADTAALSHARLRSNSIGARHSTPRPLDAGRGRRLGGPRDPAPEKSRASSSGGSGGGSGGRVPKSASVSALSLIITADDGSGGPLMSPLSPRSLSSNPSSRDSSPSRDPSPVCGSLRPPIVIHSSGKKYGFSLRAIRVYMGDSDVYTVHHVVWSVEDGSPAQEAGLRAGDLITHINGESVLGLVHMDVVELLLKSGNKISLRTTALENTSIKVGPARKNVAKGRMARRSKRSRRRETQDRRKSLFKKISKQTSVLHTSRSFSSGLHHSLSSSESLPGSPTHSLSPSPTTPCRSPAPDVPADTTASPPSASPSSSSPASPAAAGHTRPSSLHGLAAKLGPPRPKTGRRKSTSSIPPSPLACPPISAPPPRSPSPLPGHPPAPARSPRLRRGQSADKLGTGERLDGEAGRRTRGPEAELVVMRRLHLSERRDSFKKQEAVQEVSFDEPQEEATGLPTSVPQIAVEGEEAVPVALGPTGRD

[2] = biological target: cellular target proteins in HeLa cell lysate (Homo sapiens, UniProt Q13557); conditions: Ki (VI16742), CaMK2d (CAMK2D) IPI00828081
Text: as §1, §2

[3] = biological target: T1, cellular target proteins in HeLa cell lysate (Homo sapiens, UniProt O43427); conditions: Ki (VI16742), FIBP IPI00012443
T1 sequence (O43427 1-364): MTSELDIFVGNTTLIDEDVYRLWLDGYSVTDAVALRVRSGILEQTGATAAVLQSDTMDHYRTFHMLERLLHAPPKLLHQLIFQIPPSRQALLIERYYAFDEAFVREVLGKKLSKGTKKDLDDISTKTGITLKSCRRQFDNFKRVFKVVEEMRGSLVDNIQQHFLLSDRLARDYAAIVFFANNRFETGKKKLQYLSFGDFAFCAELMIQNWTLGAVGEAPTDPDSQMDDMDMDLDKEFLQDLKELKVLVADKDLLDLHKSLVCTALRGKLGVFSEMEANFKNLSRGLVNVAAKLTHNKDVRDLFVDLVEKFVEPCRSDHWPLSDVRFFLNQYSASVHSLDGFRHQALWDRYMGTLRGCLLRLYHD
Text: as §1, §2

[4] = biological target: T2, cellular target proteins in HeLa cell lysate (Homo sapiens, UniProt Q6PHR2); conditions: Ki (VI16742), ULK3 IPI00411818
T2 sequence (Q6PHR2 1-472): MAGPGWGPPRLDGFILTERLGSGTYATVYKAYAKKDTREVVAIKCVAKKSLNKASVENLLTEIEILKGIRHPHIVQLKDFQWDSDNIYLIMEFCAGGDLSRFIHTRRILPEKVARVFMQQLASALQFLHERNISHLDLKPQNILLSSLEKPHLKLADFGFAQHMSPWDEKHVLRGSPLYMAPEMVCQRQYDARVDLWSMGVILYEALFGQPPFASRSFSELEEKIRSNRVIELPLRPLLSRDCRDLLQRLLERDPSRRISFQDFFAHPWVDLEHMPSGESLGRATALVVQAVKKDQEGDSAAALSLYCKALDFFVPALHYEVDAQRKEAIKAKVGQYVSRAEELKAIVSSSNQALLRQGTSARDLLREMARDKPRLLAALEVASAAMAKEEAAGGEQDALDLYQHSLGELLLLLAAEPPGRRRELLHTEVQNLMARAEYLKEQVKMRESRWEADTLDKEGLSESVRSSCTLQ
Text: as §1, §2

[5] = biological target: cellular target proteins in HeLa cell lysate (Homo sapiens, UniProt P35790); conditions: Ki (VI16742), CHKA IPI00409761
Text: as §1, §2

[6] = biological target: cellular target proteins in HeLa cell lysate (Homo sapiens, UniProt O60307); conditions: Ki (VI16742), MAST3 IPI00028932
Text: as §1, §2

With `CC(C)n1c(=O)ccc2cnc(Nc3ccc(OCCN)cc3)nc21` [V16742] the Ki [1] was 6.59 µM, the Ki [2] was 1.9 µM and the Ki [3] was 27.9 µM. The Ki [4] was 3.48 µM, the Ki [5] was 29.2 µM and the Ki [6] was 38.3 µM.
